Assay [1] has as its system gli-luciferase activity (Hh pathway) in TMHh12 cells. As to the kind of experiment: "IC50 shift" gli-luciferase reporter assay in TMHh12 cells with a small molecule Smo agonist. Here is the method:
TM3 cells (mouse) transfected with a new proprietary reporter construct (pTA-8xGli-Luc). The pTA-8xGli-Luc reporter produces approx. 4 fold more luciferase activity than classical 8xGli-LUC. A highly responsive stable clone has been selected (TMHh12) with >10-fold signal/noise ratio and <10% CV in 384 well format.
“IC50 shift” assays in TMHh12 cells. IC50 for antagonism of gli-luciferase activity was tested in the presence of increasing concentrations of a small molecule agonist which binds to Smo with 1 nM affinity and activates the Hh pathway.
Table 1 lists the IC50 of antagonists determined in the presence of different (1 nM and 25 nM) concentrations of a small agonist of Smoothened.

The chains behind the UniProt entries cited, without tags or fusion partners. Residues count along the entry.
UniProt Q99835, 28-787 limits assumed: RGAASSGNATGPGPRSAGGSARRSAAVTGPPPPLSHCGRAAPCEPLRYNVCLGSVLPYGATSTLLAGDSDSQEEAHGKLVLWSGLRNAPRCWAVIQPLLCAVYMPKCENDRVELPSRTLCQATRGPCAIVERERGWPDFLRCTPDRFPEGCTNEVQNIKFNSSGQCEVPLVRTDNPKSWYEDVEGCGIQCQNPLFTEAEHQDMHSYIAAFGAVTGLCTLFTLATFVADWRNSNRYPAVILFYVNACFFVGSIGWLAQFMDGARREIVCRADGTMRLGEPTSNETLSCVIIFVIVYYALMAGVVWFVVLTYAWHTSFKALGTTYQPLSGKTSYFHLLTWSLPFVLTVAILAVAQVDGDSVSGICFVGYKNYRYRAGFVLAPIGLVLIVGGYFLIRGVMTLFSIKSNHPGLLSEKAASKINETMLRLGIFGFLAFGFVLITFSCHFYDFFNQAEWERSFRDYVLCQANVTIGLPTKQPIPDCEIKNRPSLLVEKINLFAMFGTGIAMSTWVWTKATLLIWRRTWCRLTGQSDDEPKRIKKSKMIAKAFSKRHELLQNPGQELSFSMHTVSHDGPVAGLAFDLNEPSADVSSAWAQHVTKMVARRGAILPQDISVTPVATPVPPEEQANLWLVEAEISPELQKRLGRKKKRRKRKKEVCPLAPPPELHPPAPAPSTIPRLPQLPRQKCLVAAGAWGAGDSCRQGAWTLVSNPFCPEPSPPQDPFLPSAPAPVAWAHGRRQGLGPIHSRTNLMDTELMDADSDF

In another assay the target is Smoothened (Homo sapiens, UniProt Q99835). As to the kind of experiment: Smo binding assay, displacement of a small molecule agonist of Smoothened, filter binding format. Conditions: read-out: Binding assay IC50.

Each structure is given as a SMILES string. Where two headings read alike, the source gives them in different places.

For `Cc1cccc(C(=O)Nc2ccc3c(c2)CC(NCc2ccc4ccccc4c2)C3)c1-c1ccc(C(F)(F)F)cc1` (stereo not drawn), the IC50 in assay [1] (read-out: Gli_luc (1 nM Smo agonist) IC50, 1 nM small molecule Smo agonist) was 50 nM; in assay [1] (read-out: Gli_luc (25 nM Smo agonist) IC50, 25 nM small molecule Smo agonist) it was 504 nM; at Smoothened it was 24 nM.
